For test [1], the target named is T1, GLS1 (Homo sapiens, UniProt O94925). The test can be described thus: GLS1 enzymatic assay (three-stage coupled endpoint assay: GLS1/GDH/diaphorase, resorufin fluorescence). Particulars: read-out: Enzyme IC50.
The target of test [2] is T1, GLS1. The test can be described thus: GLS1 cell assay: intracellular glutamate level in A549 cells (Glutamine/Glutamate-Glo). Particulars: read-out: Cell IC50, 2 h compound pre-incubation, then 24 h with L-Gln.

Chains of the proteins cited; added tags and fusions are not shown. Residues count along the entry.
UniProt O94925, 55-669 limits assumed: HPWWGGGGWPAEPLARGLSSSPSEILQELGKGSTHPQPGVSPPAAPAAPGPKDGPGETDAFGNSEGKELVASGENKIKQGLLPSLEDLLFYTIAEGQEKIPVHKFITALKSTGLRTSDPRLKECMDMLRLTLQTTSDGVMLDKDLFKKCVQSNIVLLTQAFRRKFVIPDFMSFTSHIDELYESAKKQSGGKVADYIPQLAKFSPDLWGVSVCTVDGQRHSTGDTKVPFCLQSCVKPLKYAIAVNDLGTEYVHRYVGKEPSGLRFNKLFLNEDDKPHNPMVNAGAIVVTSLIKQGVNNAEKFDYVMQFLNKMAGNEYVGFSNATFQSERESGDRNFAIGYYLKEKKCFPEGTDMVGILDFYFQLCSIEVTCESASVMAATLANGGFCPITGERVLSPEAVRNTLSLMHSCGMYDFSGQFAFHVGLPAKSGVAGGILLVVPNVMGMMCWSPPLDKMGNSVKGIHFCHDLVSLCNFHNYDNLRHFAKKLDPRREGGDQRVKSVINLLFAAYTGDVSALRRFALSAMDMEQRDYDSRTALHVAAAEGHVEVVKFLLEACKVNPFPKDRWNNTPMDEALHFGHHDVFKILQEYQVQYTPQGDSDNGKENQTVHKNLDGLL
UniProt O94925, 73-669 limits assumed: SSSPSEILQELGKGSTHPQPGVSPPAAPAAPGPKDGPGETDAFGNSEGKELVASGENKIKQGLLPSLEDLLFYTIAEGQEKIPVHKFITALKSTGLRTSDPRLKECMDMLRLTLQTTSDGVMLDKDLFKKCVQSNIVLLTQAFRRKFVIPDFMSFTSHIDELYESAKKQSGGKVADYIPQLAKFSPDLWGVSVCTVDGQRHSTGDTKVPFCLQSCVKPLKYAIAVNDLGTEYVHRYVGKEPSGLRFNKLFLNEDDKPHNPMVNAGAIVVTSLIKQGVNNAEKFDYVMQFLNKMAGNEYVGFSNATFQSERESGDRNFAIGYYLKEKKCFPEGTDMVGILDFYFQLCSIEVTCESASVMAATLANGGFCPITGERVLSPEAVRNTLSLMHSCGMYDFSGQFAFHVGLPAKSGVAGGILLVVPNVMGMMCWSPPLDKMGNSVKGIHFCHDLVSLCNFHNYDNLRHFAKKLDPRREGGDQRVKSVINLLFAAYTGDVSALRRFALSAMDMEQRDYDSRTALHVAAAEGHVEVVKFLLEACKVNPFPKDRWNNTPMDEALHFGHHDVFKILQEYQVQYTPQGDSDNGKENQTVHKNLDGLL

With `O=C(CC1CCCCN(Cc2cc(F)cc(F)c2)C1)Nc1nnc(N[C@@H]2CCN(c3cccnn3)C2)s1` (some centres unmarked), the values for the IC50 on GLS1 [1] and at GLS1 [2] were 50 nM and 6.2 nM, respectively.

For `O=C(Nc1nnc(N[C@@H]2CCN(c3cccnn3)C2)s1)[C@@H]1CCCN(Cc2cccc(OC(F)(F)F)c2)C1`, the IC50 came out at 51.2 nM on GLS1 [1] and 12 nM at GLS1 [2].

Take `Cc1cc(C)cc(CN2CCC(SCC(=O)Nc3nnc(N[C@@H]4CCN(c5cccnn5)C4)s3)CC2)c1`: the IC50 at GLS1 [1] is 22.2 nM; on GLS1 [2], 2.8 nM.

With `O=C(CC1CC2(CO1)CN(Cc1cccc(OC(F)F)c1)C2)Nc1nnc(N[C@@H]2CCN(c3cccnn3)C2)s1` (some centres unmarked), the IC50 on GLS1 [1] amounted to 21.9 nM; on GLS1 [2] it was 23.2 nM.

On to `CC1(C)CCC(N2CCOC(CC(=O)Nc3nnc(N[C@@H]4CCN(c5cncnn5)C4)s3)C2)CC1` (some centres unmarked), for which the IC50 at GLS1 [1] is 79.6 nM; at GLS1 [2], 20.3 nM.

Take `CC1(C)CCC(N2CCOC(CC(=O)Nc3nnc(N[C@@H]4CCN(c5cccnn5)C4)s3)C2)CC1` (some centres unmarked): the results for the 50% inhibitory concentration (IC50) at GLS1 [1] and at GLS1 [2] were 32.8 nM and 7.5 nM, respectively.

Regarding `CN1CCN(C2CCC(C)(C)CC2)C[C@H]1CC(=O)Nc1nnc(N[C@@H]2CCN(c3cccnn3)C2)s1` (single isomer, unassigned) [Example 288], the IC50 at GLS1 [1] was 145 nM; at GLS1 [2] it was 206 nM.

For the compound `CC(C)Oc1ccccc1CN1CCCC(SCC(=O)Nc2nnc(N[C@@H]3CCN(c4cccnn4)C3)s2)C1` (some centres unmarked), the results for the IC50 at GLS1 [1] and at GLS1 [2] were 36.7 nM and 5.2 nM, respectively.

`O=C(C[C@@H]1CCCN(Cc2cc(F)cc(F)c2)C1)Nc1nnc(N[C@H]2CN(c3cccnn3)C[C@@H]2F)s1`: the figures for the IC50 at GLS1 [1] and on GLS1 [2] were 19.7 nM and 3.4 nM, respectively.

As to `CC(C)[C@@H]1CC[C@@H](C)C[C@@H]1N1CCO[C@H](CC(=O)Nc2nnc(N[C@@H]3CCN(c4cccnn4)C3)s2)C1` (racemic) [Example 126], the IC50 amounted to 2900 nM on GLS1 [1] and 5640 nM at GLS1 [2].

In the case of `CCC1(CC)CCC(N2CCO[C@H](CC(=O)Nc3nnc(N[C@@H]4CCN(c5cccnn5)C4)s3)C2)CC1` (single isomer, unassigned) [Example 148], the IC50 was found to be 10.9 nM at GLS1 [1] and 1.6 nM at GLS1 [2].

Take `CC(C)[C@H]1CC[C@H](N2CCO[C@H](CC(=O)Nc3nnc(N[C@@H]4CCN(c5cccnn5)C4)s3)C2)CC1` (single isomer, unassigned) [Example 244]: the 50% inhibitory concentration (IC50) was found to be 29.8 nM on GLS1 [1] and 1.6 nM on GLS1 [2].

Turning to `O=C(C[C@@H]1CN(C2CCC3(CCC3)CC2)CCO1)Nc1nnc(N[C@@H]2CCN(c3cccnn3)C2)s1` (single isomer, unassigned) [Example 275], the IC50 worked out at 18.8 nM at GLS1 [1] and 2.8 nM on GLS1 [2].

On to `O=C(CC1CCC2(CC1)CCN(Cc1ncccc1OC1CCC1)CC2)Nc1nnc(N[C@@H]2CCN(c3cccnn3)C2)s1`, for which the results for the IC50 on GLS1 [1] and on GLS1 [2] were 28.1 nM and 57.9 nM, respectively.

On to `Cc1ccc(CN2CC[C@]3(C2)C[C@H](CC(=O)Nc2nnc(N[C@@H]4CCN(c5cccnn5)C4)s2)C3)c(OC(C)C)c1` (single isomer, unassigned) [Example 192], for which the figures for the IC50 at GLS1 [1] and at GLS1 [2] were 18.5 nM and 29.6 nM, respectively.

Regarding `Cc1cc(C)c(CN2CCC3(CCC(CC(=O)Nc4nnc(N[C@@H]5CCN(c6cccnn6)C5)s4)CC3)CC2)c(C)n1`, the IC50 at GLS1 [1] was 43.7 nM; at GLS1 [2] it was 14.2 nM.

Regarding `O=C(C[C@H]1CC2(CO1)CN(Cc1cccc(OC(F)(F)F)c1)C2)Nc1nnc(N[C@@H]2CCN(c3cccnn3)C2)s1` (single isomer, unassigned) [Example 81], the IC50 was determined as 24.1 nM at GLS1 [1] and 6.3 nM at GLS1 [2].

For the compound `O=C(CC1CCN(Cc2ccc(O)c(OC(F)(F)F)c2)CC1)Nc1nnc(N[C@@H]2CCN(c3cccnn3)C2)s1`, the concentration for half-maximal inhibition (IC50) is 63.2 nM on GLS1 [1] and 489 nM on GLS1 [2].

On to `O=C(C[C@H]1CCCN(Cc2cccc(OC(F)(F)F)c2)C1)Nc1nnc(N[C@@H]2CCN(c3cccnn3)C2)s1`, for which the results for the IC50 on GLS1 [1] and at GLS1 [2] were 37.6 nM and 4.7 nM, respectively.

As usually defined, the IC50 is the midpoint of a concentration-inhibition curve.

Values taken from patent US20260384443A1, “THIADIAZOLES AS GLUTAMINASE I INHIBITORS” (published 2026).
